Test system: Mut^−/−; Tg^INS-MCK-Mut mice
Assay: In vivo stable isotope oxidation studies (13CO2 enrichment in respiratory chambers after IP tracer)
Settings: N=5, time-point 30′
Experimental: To further assess transgene function, the in vivo oxidative capacity of Mut^−/−; Tg^INS-MCK-Mut mice was measured through detecting metabolism of numerous 1-^13C labeled fatty acids to ^13CO2 via the Kreb's Cycle.
The in vivo effects of hepatic Mut deficiency were also assessed by measuring the oxidation of 1-^13C-methionine (FIG. 1I) and 1-^13C-glycine (FIG. 1J). These labels reflect hepatic mitochondrial function and the activity of the glycine cleavage system, both known to be impaired in MMA patients.
In Vivo Stable Isotope Oxidation Studies: Stable isotope studies were performed in 4 Mut−/−; Tg^INS-MCK-Mut and 4 control littermates. […] Aliquots of air were removed every 5-10 min, while CO2 was continuously monitored. ^13CO2 enrichment was measured by isotope ratio mass spectroscopy (Metabolic Solutions, Nashua, N.H.). […] Cumulative percentage of total isotopomer dose metabolized was subsequently calculated, using the formula: Percentage of dose metabolized=total ^13C excreted [mmol/dose (mmol)×100%]. […]
These studies were conducted using N=5 mice with MMA (Mut^−/−; Tg^INS-MCK-Mut mutants) and N=5 sex matched littermates (controls). Each mouse was injected with the labels depicted in Table 3 and the oxidation rates and kinetics of ^13C/^12C CO2 enrichment were analyzed.

Cumulative % of total dose metabolized, Mutants, mean (SD) (Mut^−/−;Tg^INS-MCK-Mut mutants): 44.71 (8.58) %
Cumulative % of total dose metabolized, Controls, mean (SD) (sex matched littermate controls): 31.94 (11.58) %
Substance: Sodium 1-^13C-Octanoate

— patent US20200345268A1, “ISOTOPIC BIOMARKERS OF ORGANIC ACIDEMIAS” (The United States of America, as represented by the …, priority 2017, published 2020)
